# HCMV NEC inh – cytomegalovirus nuclear egress complex inhibition. HTRF UL50-UL53 interaction, normalized percent inhibition. AID 1918969. inhibition, % (concentration not given with the values). 0.15% of 190,000 active; in the data active = inhibition above about 27%, passing the limit was not always enough
# GIV Gai3 FP – blocks GIV peptide binding to rat Galpha-i3. P08753. Galpha-i3/FITC-GIV peptide fluorescence polarization, 90 min; stronger effect = lower value; scaled: aluminum fluoride 0%, vehicle 100%. percent of control (FP), % (test concentration not listed). 0.42% of 210,000 active. AID 1224905;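 active = replicate mean at 85% of control or lower, very high polarization wells dropped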;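 also: wells of about 15 µL received 100 nL stock; the first replicate is given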
# * marks the source's active call; other numbers are inactive results; nt = no result given. A selection: hits, their analogues and other compounds. The true share with any hit is near 0.46%.
1: COc1ccc(-n2nc3c(c2NC(=O)c2ccc(S(=O)(=O)N4CCCC4)cc2)CSC3)cc1
  HCMV NEC inh: 58*
  GIV Gai3 FP: 104

2: Cc1ccccc1-n1nc2c(c1NC(=O)c1ccc(S(=O)(=O)N3CCCCC3)cc1)CSC2
  HCMV NEC inh: 40*
  GIV Gai3 FP: 104

3: Cc1ccc(-n2nc3c(c2NC(=O)c2ccc(S(=O)(=O)N4CCOCC4)cc2)CSC3)c(C)c1
  HCMV NEC inh: 90*
  GIV Gai3 FP: 109

4: COc1ccc(-n2nc3c(c2NC(=O)c2ccc(S(=O)(=O)N4CCCCC4)cc2)CSC3)cc1
  HCMV NEC inh: 32
  GIV Gai3 FP: 102

5: Cc1cccc(-n2nc3c(c2NC(=O)c2ccc(S(=O)(=O)N4CCCCC4)cc2)CSC3)c1C
  HCMV NEC inh: nt
  GIV Gai3 FP: 109

6: Cc1ccc(-n2nc3c(c2NC(=O)c2ccc(S(=O)(=O)N4CCCCC4)cc2)CSC3)c(C)c1
  HCMV NEC inh: 6
  GIV Gai3 FP: 103

7: CCCCn1c(C)c(C)c2c1ncn1nc(CSc3nc4ccccc4o3)nc21
  HCMV NEC inh: -30
  GIV Gai3 FP: 107

8: COc1ccc(NS(=O)(=O)c2ccc(Cc3cc(C)n[nH]c3=O)cc2)c(OC)c1
  HCMV NEC inh: -12
  GIV Gai3 FP: 100

9: CCOc1ccc(NC(=O)Cn2nc(SCC)c(S(=O)(=O)c3ccc(OC)cc3)c2N)cc1
  HCMV NEC inh: -26
  GIV Gai3 FP: 100

10: O=S(=O)(c1cccs1)N1CCN(Cn2c(NCCO)nc3ccccc32)CC1
  HCMV NEC inh: -11
  GIV Gai3 FP: nt

11: O=c1oc2ccc3ccccc3c2cc1-c1nc(-c2cccs2)cs1
  HCMV NEC inh: nt
  GIV Gai3 FP: 116

12: O=c1oc2ccccc2cc1-c1nc(-c2cccs2)cs1
  HCMV NEC inh: nt
  GIV Gai3 FP: 11*

13: COc1cccc2cc(-c3nnc(NC4CCCCC4)s3)c(=O)oc12
  HCMV NEC inh: nt
  GIV Gai3 FP: 113

14: O=c1oc2cc(O)ccc2cc1-c1nnc(NC2CCCCC2)s1
  HCMV NEC inh: nt
  GIV Gai3 FP: -31*

15: O=c1oc2cc(O)ccc2cc1-c1nc(-c2ccc3ccccc3c2)cs1
  HCMV NEC inh: nt
  GIV Gai3 FP: -29*

16: Cc1ccc(-c2csc(-c3cc4ccccc4oc3=O)n2)cc1C
  HCMV NEC inh: nt
  GIV Gai3 FP: 111

17: COc1cc(NC(=O)C2CCC(=O)N2S(=O)(=O)c2ccccc2)cc(OC)c1 (centres undefined)
  HCMV NEC inh: -27
  GIV Gai3 FP: 104

18: COc1ccccc1N(Cc1cc2ccccc2[nH]c1=O)C(=O)C(C)(C)C
  HCMV NEC inh: -19
  GIV Gai3 FP: 99

19: CCOC(=O)c1c(CN2CCN(CCO)CC2)n(C)c2cc(Br)c(OC(C)=O)cc12
  HCMV NEC inh: nt
  GIV Gai3 FP: 103

20: CCOC(=O)c1[nH]c(C)c(CN(Cc2ccc(C)cc2)C(=O)NC2CCCC2)c1C
  HCMV NEC inh: nt
  GIV Gai3 FP: 102

21: Cc1ccccc1NC(=O)C(C)Sc1nnc(-c2ccccc2O)o1 (centres undefined)
  HCMV NEC inh: -27
  GIV Gai3 FP: 103

22: O=C1/C(=C/c2c(NCc3ccco3)nc3ccccn3c2=O)SC(=S)N1C1CCCCC1
  HCMV NEC inh: nt
  GIV Gai3 FP: 109

23: CCN1C(=O)/C(=C/c2c(NC(C)C)nc3ccccn3c2=O)SC1=S
  HCMV NEC inh: -13
  GIV Gai3 FP: 293

24: C=CCN1C(=O)/C(=C/c2c(NCc3ccco3)nc3ccccn3c2=O)SC1=S
  HCMV NEC inh: -14
  GIV Gai3 FP: -83*

25: C=CCN1C(=O)/C(=C/c2c(NCC)nc3ccccn3c2=O)SC1=S
  HCMV NEC inh: nt
  GIV Gai3 FP: -33*

26: COc1ccc(CCN2C(=O)/C(=C/c3c(NCc4ccccc4)nc4ccccn4c3=O)SC2=S)cc1OC
  HCMV NEC inh: nt
  GIV Gai3 FP: 139

27: CCNc1nc2ccccn2c(=O)c1/C=C1\SC(=S)N(Cc2ccco2)C1=O
  HCMV NEC inh: -11
  GIV Gai3 FP: -75*

28: O=C1CN(CC(=O)Nc2ccc3c(c2)OC(F)(F)O3)CCN1
  HCMV NEC inh: -6
  GIV Gai3 FP: nt

29: COC(=O)C1C(c2ccc(OC)cc2)C(C(=O)OC)S(=O)(=O)C(CCN2CCOCC2)S1(=O)=O (centres undefined)
  HCMV NEC inh: nt
  GIV Gai3 FP: 112

30: COc1ccc(N2CCN(/C=C(\C#N)c3nc4ccccc4s3)CC2)cc1
  HCMV NEC inh: 5
  GIV Gai3 FP: -61*

31: COc1ccc(/C(O)=C(/C#N)c2nc3ccccc3s2)cc1
  HCMV NEC inh: -10
  GIV Gai3 FP: nt

32: CN1c2ccccc2Oc2nnc(Cl)cc21
  HCMV NEC inh: 105*
  GIV Gai3 FP: 104

33: CN1c2ccccc2Oc2nnc(N3CCN(Cc4ccccc4)CC3)cc21
  HCMV NEC inh: -40
  GIV Gai3 FP: 104

34: CN1CCCc2cc(C(=O)NC3CCCCC3)sc21
  HCMV NEC inh: nt
  GIV Gai3 FP: 102

35: O=C(c1ccc(Cl)c(Cl)c1)N(c1ccccn1)c1ccccn1
  HCMV NEC inh: 21
  GIV Gai3 FP: nt

36: CCc1ccccc1N1C(=O)NC(=O)/C(=C\c2ccc(N(CC)CC)o2)C1=O
  HCMV NEC inh: -74
  GIV Gai3 FP: -59*

37: CCOc1ccc(N2C(=O)NC(=O)/C(=C\c3ccc(Br)o3)C2=O)cc1
  HCMV NEC inh: nt
  GIV Gai3 FP: 131

38: COc1cc(OC)c(CNc2ccc3cn[nH]c3c2)cc1Br
  HCMV NEC inh: -8
  GIV Gai3 FP: 111

39: Brc1ccc(CNc2ccc3cn[nH]c3c2)s1
  HCMV NEC inh: 56*
  GIV Gai3 FP: 116

40: Cc1cccc(NC2=NC(=S)N(c3cccc(C(F)(F)F)c3)C23CCCCC3)c1
  HCMV NEC inh: nt
  GIV Gai3 FP: 111

41: COC(=O)c1ccc(N)cc1O
  HCMV NEC inh: -20
  GIV Gai3 FP: 100

42: COC(=O)c1ccc(=O)c2nc3/c(=C/O)c(O)cc(=O)c3[nH]c12
  HCMV NEC inh: 50*
  GIV Gai3 FP: 100

43: COc1ccccc1NS(=O)(=O)c1ccc2oc(SCC(=O)N3CC(C)OC(C)C3)nc2c1 (centres undefined)
  HCMV NEC inh: 5
  GIV Gai3 FP: nt

44: Cc1cccc(CN2CCN(CC(=O)NC3CCCCCC3)C2=O)c1
  HCMV NEC inh: -27
  GIV Gai3 FP: 96

45: CCc1ccc(C2C(C#N)=C(N)SC(N)=C2C#N)cc1
  HCMV NEC inh: -13
  GIV Gai3 FP: nt

# Structural class, the entries above containing a furan ring, fused or not (5)
22: O=C1/C(=C/c2c(NCc3ccco3)nc3ccccn3c2=O)SC(=S)N1C1CCCCC1
  HCMV NEC inh: nt
  GIV Gai3 FP: 109

24: C=CCN1C(=O)/C(=C/c2c(NCc3ccco3)nc3ccccn3c2=O)SC1=S
  HCMV NEC inh: -14
  GIV Gai3 FP: -83*

27: CCNc1nc2ccccn2c(=O)c1/C=C1\SC(=S)N(Cc2ccco2)C1=O
  HCMV NEC inh: -11
  GIV Gai3 FP: -75*

36: CCc1ccccc1N1C(=O)NC(=O)/C(=C\c2ccc(N(CC)CC)o2)C1=O
  HCMV NEC inh: -74
  GIV Gai3 FP: -59*

37: CCOc1ccc(N2C(=O)NC(=O)/C(=C\c3ccc(Br)o3)C2=O)cc1
  HCMV NEC inh: nt
  GIV Gai3 FP: 131

# Carrying on.
46: CCOc1ccccc1C1C(C#N)=C(N)SC(N)=C1C#N
  HCMV NEC inh: -11
  GIV Gai3 FP: -78*

47: COc1cc(OC)cc(-c2nc3ccccc3c(=O)n2OC(=O)c2cc(Cl)ccc2OC)c1
  HCMV NEC inh: 11
  GIV Gai3 FP: 103

48: COc1ccccc1C(=O)On1c(C)nc2ccccc2c1=O
  HCMV NEC inh: 31*
  GIV Gai3 FP: 98

49: N#Cc1cc(C(=O)c2ccccc2O)cn(-c2ccccn2)c1=O
  HCMV NEC inh: -75
  GIV Gai3 FP: nt

50: CCOC(=O)N1CCN(C(=O)c2cccn3c(=O)c4cc5ccccc5cc4nc23)CC1
  HCMV NEC inh: nt
  GIV Gai3 FP: 24*

51: Cc1ccc(C)c(N2CCN(C(=O)c3cccn4c(=O)c5ccccc5nc34)CC2)c1
  HCMV NEC inh: nt
  GIV Gai3 FP: 104

52: CSc1nnc2c(n1)OC1(Nc3ccccc3-2)C(=O)Nc2ccc([N+](=O)[O-])cc21 (centres undefined)
  HCMV NEC inh: 34*
  GIV Gai3 FP: 86

53: CSc1nnc2c(n1)OC(c1ccc([N+](=O)[O-])cc1)Nc1ccccc1-2 (centres undefined)
  HCMV NEC inh: nt
  GIV Gai3 FP: 114

54: COc1cc(/C=C2/C(=O)N(c3ccccc3)N=C2C)ccc1OS(=O)(=O)c1ccccc1[N+](=O)[O-]
  HCMV NEC inh: -34
  GIV Gai3 FP: 106

55: CCOc1cc(/C=C2/C(=O)N(c3ccccc3)N=C2C)ccc1OS(=O)(=O)c1ccccc1
  HCMV NEC inh: 60*
  GIV Gai3 FP: 104

56: CCOc1ccc(S(=O)(=O)Nc2cc(Cl)c(O)c3ccccc23)cc1
  HCMV NEC inh: 59*
  GIV Gai3 FP: nt

57: CCCOC(=O)c1c(C)oc2c1cc(NS(=O)(=O)c1ccc(OCC)cc1)c1ccccc12
  HCMV NEC inh: -43
  GIV Gai3 FP: 108

58: CC(=O)Nc1ccc(NC(=O)C2CCN(S(=O)(=O)c3cc(-c4noc(C)n4)sc3C)CC2)cc1
  HCMV NEC inh: 10
  GIV Gai3 FP: 110

59: Nc1nc(COC(=O)/C=C/c2cc(Cl)c3c(c2)OCCO3)nc(Nc2ccccc2)n1
  HCMV NEC inh: -3
  GIV Gai3 FP: nt

60: COc1ccc(-n2ccnc(SCC(=O)Nc3ccccc3)c2=O)cc1
  HCMV NEC inh: -142
  GIV Gai3 FP: 108

61: O=C(O)CN1C(=O)/C(=C\c2cc([N+](=O)[O-])cc(Br)c2O)SC1=S
  HCMV NEC inh: -78
  GIV Gai3 FP: -59*

62: O=C1/C(=C/c2cc([N+](=O)[O-])cc(Br)c2O)SC(=S)N1c1ccc([N+](=O)[O-])cc1
  HCMV NEC inh: -19
  GIV Gai3 FP: 106

63: O=C(O)CCCn1cc(NC(=O)c2cccs2)cn1
  HCMV NEC inh: -30
  GIV Gai3 FP: 100

64: COc1ccc(Cl)cc1NS(=O)(=O)c1cc(-c2nc(C)cs2)sc1C
  HCMV NEC inh: nt
  GIV Gai3 FP: 155

65: O=C(c1ccc(Nc2nn3c(=O)c4ccccc4nc3s2)cc1)N1CCc2ccccc2C1
  HCMV NEC inh: 56*
  GIV Gai3 FP: 101

66: Cc1ccccc1Nc1nn2c(=O)c3ccc(C(=O)N4CCc5ccccc5C4)cc3nc2s1
  HCMV NEC inh: -28
  GIV Gai3 FP: 103

67: CCS(=O)(=O)N1CCCC1c1cc(C)on1 (centres undefined)
  HCMV NEC inh: nt
  GIV Gai3 FP: 97

68: CCCCC(C)(C)[C@H](O)/C=C/[C@H]1[C@H](O)CC(=O)[C@@H]1CCCCCCC(=O)O
  HCMV NEC inh: -15
  GIV Gai3 FP: nt

69: Cc1nc2nc(-c3ccccc3)c(-c3ccccc3)n2nc1C
  HCMV NEC inh: nt
  GIV Gai3 FP: 116

70: c1ccc(-c2nc3nc(-c4ccccc4)c(-c4ccccc4)n3nc2-c2ccccc2)cc1
  HCMV NEC inh: nt
  GIV Gai3 FP: -31*

# Screens deposited in PubChem by ICCB-Longwood Screening Facility, Harvard Medical School.
